Results taken from patent publication US20230190937A1, “IRON COMPLEXES OF ESTERIFIED DERIVATIVES OF NATURAL PRODUCTS, AND METHODS OF USE” (CORNELL UNIVERSITY, priority 2021, published 2023).

Experiment: Stability of curcumin after modification to ester derivatives
Conditions: after esterification of curcumin, compared with pure curcumin (97% purity)

curcumin dibutanoate
stability of the compound: significantly increased

curcumin dioctanoate
stability of the compound: significantly increased
